As usually defined, the EC50 is the concentration that produces a half-maximal response. Lower therefore signals an effect from little substance.

Sequences of proteins named here, by UniProt entry; tags and fusion partners are left off. Residues count along the entry.
UniProt G1T1Q0, 1-443: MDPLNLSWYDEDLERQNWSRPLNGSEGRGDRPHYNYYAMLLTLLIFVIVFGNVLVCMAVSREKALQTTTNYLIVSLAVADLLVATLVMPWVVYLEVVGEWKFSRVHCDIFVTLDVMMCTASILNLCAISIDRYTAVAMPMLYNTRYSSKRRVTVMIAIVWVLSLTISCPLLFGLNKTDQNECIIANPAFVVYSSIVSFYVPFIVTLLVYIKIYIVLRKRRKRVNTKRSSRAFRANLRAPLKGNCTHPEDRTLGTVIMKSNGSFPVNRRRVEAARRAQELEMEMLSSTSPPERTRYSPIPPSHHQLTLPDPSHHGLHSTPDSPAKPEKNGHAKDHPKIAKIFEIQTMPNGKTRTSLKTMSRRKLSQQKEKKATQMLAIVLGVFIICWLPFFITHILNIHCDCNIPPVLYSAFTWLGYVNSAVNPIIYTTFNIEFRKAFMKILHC

The results in this text go back to patent US4414224A (SmithKline Beckman Corporation, priority 1982, dated 1983).

Where two headings read alike, the source gives them in different places.

The test deals with prejunctional dopamine receptors (Oryctolagus cuniculus, UniProt G1T1Q0). Briefly: cell-based. The text has this: The isolated perfused rabbit ear artery preparation described by J. P. Hiebel and R. G. Pendleton, Arch.

As to `CCCN(CCC)CCc1ccc(O)c2c1CC(=O)N2` [4-(2-di-n-propylaminoethyl)-7-hydroxy-2(3H)-indolone], the EC50 is 1.8 ± 0.3 nM. Besides, under “1-sulpiride, selective dopamine antagonist”, the “inhibitory effect of the compound in presence of 1-sulpiride” value is “blocked by 1-sulpiride”.

Regarding `CCN1CCC[C@H]1CNC(=O)c1cc(S(N)(=O)=O)ccc1OC` [Compound 1-sulpiride, 1-sulpiride, reference compound], the Kb was determined as 8.8 nM. The compound also returned a Kb (receptor dissociation constant (KB) as a blocker of dopamine-induced inhibition, agonist: dopamine) of 32 nM.
